In test [1] the test system is 6 Hz Psychomotor model seizures. Conditions: cited from earlier work.
The test system of test [2] is Maximal Electroshock Model seizures. Conditions: in vivo; cited from earlier work.
Test [3] relates to Pilocarpine Model seizures. The note with it: in vivo; cited from earlier work.
In test [4] the test system is seizures induced by pilocarpine. As to the kind of experiment: seizure EEG activity in rat having seizures induced by pilocarpine. The note with it: 65 mg/kg i.p., up to 8 hours, rat with pilocarpine-induced seizures.
Test [5] shares this test system. As to the kind of experiment: rat pilocarpine model of status epilepticus: halting seizures. Conditions: 65 mg/kg i.p.
The test system of test [6] is seizures induced by the nerve agent soman. As to the kind of experiment: halting seizures induced by the nerve agent soman in the rat. The note with it: for Number of animals protected/number tested: 20 minutes after seizure onset, soman.

As for `O=C1NC(=O)C(c2ccccc2)(c2ccccc2)N1`, in test [1], the “halting seizures in the mouse 6 Hz Psychomotor model” value was “poor activity”. The “anticonvulsant activity in the Maximal Electroshock Model (MES)” value in test [2] was “good anticonvulsant activity”. The “halting seizures in the Pilocarpine Model test” value in test [3] is “Neither compound is effective”.

For `CC(C)c1cccc(C(C)C)c1O`, in test [4], the “change in power of EEG activity” value is on record as “did not cause a significant reduction”. Moreover, the “number animals protected/number of animals treated” value in test [5] (given 0 hour after onset of S3-5 seizures, listed as propofol) is 7 of 8; in test [5] (given 0.5 hours after onset of S3-5 seizures, listed as propofol), 6 of 8.

With `CCC(C)c1cccc(C(C)CC)c1O` (racemic), the “change in power of EEG activity” value in test [4] is recorded as “significantly reduced”. The “number animals protected/number of animals treated” value in test [5] (given 0 hour after onset of S3-5 seizures) was 8/8; in test [5] (given 0 hour after onset of S3-5 seizures, listed as 2,6-Di-sec-butylphenol) it was “completely protective”; in test [5] (given 0.5 hours after onset of S3-5 seizures), 8/8; in test [5] (given 0.5 hours after onset of S3-5 seizures, listed as 2,6-Di-sec-butylphenol), “completely protective”. For the same compound, the “Number of animals protected/number tested” value in test [6] (40 mg/kg i.p.) was 0/6; in test [6] (50 mg/kg i.p.) it was 1/6; in test [6] (63 mg/kg i.p.), 1/6; in test [6] (79 mg/kg i.p.), 3/5; in test [6] (100 mg/kg i.p.), 2/5. Also, the “activity in inhibiting seizures caused by soman” value in test [6] (administered 20 minutes after seizure onset) is listed as “significant activity”.

For `CC[C@@H](C(N)=O)N1CCCC1=O`, the “halting seizures in the mouse 6 Hz Psychomotor model” value in test [1] was “effective”. Moreover, the “anticonvulsant activity in the Maximal Electroshock Model (MES)” value in test [2] is “does not have anticonvulsant activity”. Besides, in test [3], the “halting seizures in the Pilocarpine Model test” value is on record as “Neither compound is effective”.
